The values below come from PubChem BioAssay AID504660 (National Center for Advancing Translational Sciences (NCATS), 2011).

Protein sequences, listed by entry. Tags and fused reporters are not part of them.
UniProt P21728, whole entry: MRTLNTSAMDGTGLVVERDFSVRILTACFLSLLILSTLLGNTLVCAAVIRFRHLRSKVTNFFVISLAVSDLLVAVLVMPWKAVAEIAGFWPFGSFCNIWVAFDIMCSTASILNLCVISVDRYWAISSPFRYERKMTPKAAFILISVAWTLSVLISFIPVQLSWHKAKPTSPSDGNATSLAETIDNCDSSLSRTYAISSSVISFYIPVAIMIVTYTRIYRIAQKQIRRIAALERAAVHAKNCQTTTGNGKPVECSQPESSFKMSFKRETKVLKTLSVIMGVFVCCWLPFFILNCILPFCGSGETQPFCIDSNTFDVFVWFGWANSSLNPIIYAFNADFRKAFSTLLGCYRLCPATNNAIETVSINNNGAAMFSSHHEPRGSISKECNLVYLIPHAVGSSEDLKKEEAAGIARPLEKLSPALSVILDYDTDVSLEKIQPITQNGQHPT

Only a part is listed here, and it is no random draw. Some structures show a salt or complex split into parts, the way the source records it. The source made the active and inactive calls. Rule as the data show it: active = activation above about 30%; inactive = the rest.

The target in this assay is D(1A) dopamine receptor (Homo sapiens) (UniProt P21728). As to the kind of experiment: Allosteric Agonists of the Human D1 Dopamine Receptor: qHTS. Also: 0% is about no effect. To be noted: HEK293 T-REx D1 cells, calcium flux, agonist mode; at 2 µM; hits give high values. The text has this:
NIH Chemical Genomics Center [NCGC] NIH Molecular Libraries Probe Centers Network [MLPCN] MLPCN Grant: NS064831-01 Assay Submitter (PI): David Sibley Dopamine receptors (DARs) are involved in the etiology and/or therapy of a number of neuropsychiatric and endocrine disorders. For instance, all receptor-based antiparkinsonian drugs work via stimulating the D1 DAR subtype whereas all FDA-approved antipsychotic agents are antagonists of this receptor. […] There are three different types of allosteric modulators that we are seeking, two of which will stimulate or augment receptor signaling, allosteric agonists and potentiators, while the third, allosteric antagonists, will attenuate receptor signaling. The present primary screening assay measures compound agonism by tracking calcium flux in a […], inducible Hek293 Trex D1 cell line.
Freshly passaged cells are plated in 1536 well black, clear bottom plates at a density of 4000 cells/well in 3 ul of complete media containing 1x tetracycline inducer. After an overnight incubation at […] in 5% CO2, cells are loaded with 2 ul of the no wash Calcium Assay Kit (ABD Bioquest) and incubated at room temperature for 30 to 90 minutes. Agonist read: A 10 cycle (1 second/cycle) baseline measurement is taken and then the FDSS online 1536 pintool delivers 23 nl of compound library (as well as dopamine controls) to the plate. The plate is measured for kinetically at 1 cycle/sec for 180 seconds and is considered to be the agonist portion of the assay (eg, compounds which activate a positive calcium response during this portion are flagged as potential agonists). Following the 180 second read, 1 ul of either an EC20 (positive modulation assay) or EC80 (negative modulation assay) is delivered by an onboard pipette head. Measurements are taken kinetically for an additional 180 seconds.
A general note: qHTS replaces the single test concentration by a dilution series.
On to `CN(C)C1(CNC(=O)c2cccc(C#N)c2)CCCCC1`, for which the activation was inactive: 4.02%.
For the compound `c1ccc(CN2CCC(Nc3ccccc3)CC2)cc1`, the activation was inactive: -0.473%.
In the case of `CCCN1CCC(Nc2cc(OC)cc(OC)c2)CC1`, the activation is inactive: 1.35%.
Turning to `O=C(NCC1(N2CCOCC2)CCCCC1)c1ccccc1`, the activation was inactive: -1.95%.
Next, `CCOC(=O)C(CC)C1=NC(C)(C)Cc2ccccc21.O=[N+]([O-])c1cc([N+](=O)[O-])c(O)c([N+](=O)[O-])c1` (stereo not given): inactive: -0.126%; `O=C(NCC1(N2CCOCC2)CCCCC1)c1ccccc1[N+](=O)[O-]`: inactive: 1.89%.
Next, `N#Cc1ccc(C(=O)NCC2(N3CCCCC3)CCCCC2)cc1`: inactive: 2.39%; `O=C(NCC1(N2CCOCC2)CCCCC1)c1ccc([N+](=O)[O-])cc1`: inactive: -2.2%.
Take `CC(C)(C)OC(=O)N1CCC(N(C(=O)c2ccccc2)c2ccc(Cl)cc2)CC1`: the activation is inactive: 3.48%.
Next, `CCc1cc(C(=O)NCC2(N3CCCCC3)CCCCC2)sc1C`: inactive: 11.2%.
Regarding `O=C(OC1CN2CCC1CC2)C1c2ccccc2C=Cc2ccccc21` (stereo not given), the activation is inactive: 8.31%.
Consider `O=C(O)c1cccc(Nc2c([N+](=O)[O-])cc([N+](=O)[O-])cc2[N+](=O)[O-])c1`, for which the activation was inactive: 1.13%.
Turning to `CCOC(=O)N1CCC(Nc2ccc(C)cc2)CC1`, the activation was inactive: 1.06%.
Regarding `N/C(=N\O)c1c(N)no[n+]1[O-]`, the activation was inactive: 0.538%.
For the compound `COc1ccc(C(=O)NCC2(N3CCOCC3)CCCCC2)cc1OC`, the activation was inactive: 0.417%.
With `O=C(NCC1(N2CCOCC2)CCCCC1)c1cc(Br)ccc1Cl`, the activation was inactive: 0.42%.
As for `CN1CCC(Nc2ccc(Cl)cc2)CC1`, the activation was inactive: 4.48%.
Next, `CCCOc1ccc(C)cc1CN(CCCl)CCCl`: inactive: 2.61%; `COc1cccc(C(=O)N(c2cc(C)cc(C)c2)C2CCN(C(=O)OC(C)(C)C)CC2)c1`: inactive: 1.28%; `COc1cc(C(=O)NCC2(N3CCOCC3)CCCCC2)cc(OC)c1OC`: inactive: -0.558%.
For the compound `COc1cc(OC)cc(C(=O)NCC2(N3CCOCC3)CCCCC2)c1`, the activation was inactive: 2.43%.
For `CCC(CO)(C(=O)OC1CN2CCC1CC2)c1ccccc1` (stereo not given) the value was inactive: 2.73%.
With `CC(C)(C)OC(=O)N1CCC(Nc2ccccc2)CC1`, the activation is inactive: 2.35%.
For the compound `O=C(O)C1(Nc2ccccc2)CCN(Cc2ccccc2)CC1`, the activation was inactive: 2.1%.
Next, `CCCOc1ccc(C(=O)NCC2(N(C)C)CCCCC2)cc1`: inactive: 3.82%.
Regarding `CCOc1ncccc1C(=O)NCC1(N2CCOCC2)CCCCC1`, the activation is inactive: 2.42%.
For `CN1CCC(Nc2ccc(F)c(Cl)c2)CC1` the value was inactive: 8.95%; for `Cc1ccccc1C(=O)NCC1(N(C)C)CCCCC1`, inactive: -0.577%.
For `O=C(NCC1(N2CCCCC2)CCCCC1)c1ccco1` the value was inactive: 0.975%; for `CC(C)(C)c1ccc(C(=O)NCC2(N3CCOCC3)CCCCC2)cc1`, inactive: -1.6%; for `CN(C)c1ccc(C(=O)NCC2(N3CCCCC3)CCCCC2)cc1`, inactive: 10.6%.
As for `CCN1CCC(Nc2cccc(F)c2)CC1`, the activation was inactive: 2.34%.
`Cc1ccc(C(=O)NCC2(N3CCCCC3)CCCCC2)o1`: the activation was inactive: 0.284%.
Next, `Fc1ccccc1NC1CCN(Cc2ccccc2)CC1`: inactive: 1.09%; `CN(C)C1(CNC(=O)c2ccc(C(C)(C)C)cc2)CCCCC1`: inactive: 6.66%; `COc1cc(OC)cc(C(=O)NCC2(N3CCCCC3)CCCCC2)c1`: inactive: 1.26%.
Turning to `CCOC(=O)N1CCC(Nc2cccc(C)c2)CC1`, the activation is inactive: 3.81%.
For `COc1cc(C(=O)NCC2(N(C)C)CCCCC2)ccc1OC(F)F` the value was inactive: 3.56%; for `Cc1ccc(OCC(C)C)c(CN(CCCl)CCCl)c1`, inactive: 4.32%; for `COc1ccccc1C(=O)NCC1(N2CCOCC2)CCCCC1`, inactive: -0.938%.
Next, `CCCCOc1ccc(C(=O)NCC2(N3CCOCC3)CCCCC2)cc1`: inactive: 4.54%; `O=C(NCC1(N2CCCCC2)CCCCC1)c1ccc(F)cc1`: inactive: -1.43%.
For `CCOC(=O)N1CCC(Nc2ccc(F)cc2)CC1` the value was inactive: 4.27%.
With `COc1ccc(NC2CCN(CCc3ccccc3)CC2)c(OC)c1`, the activation was inactive: 3.1%.
Next, `O=C(NCC1(N2CCOCC2)CCCCC1)c1ccc(Cl)cc1`: inactive: -1.42%; `CCOc1ccc(C)cc1CN(CCCl)CCCl`: inactive: -0.723%; `N#CC1(Nc2ccccc2)CCN(Cc2ccccc2)CC1`: inactive: 2.42%.
Next, `O=C(NCC1(N2CCCCC2)CCCCC1)c1ccc(Cl)s1`: inactive: 2.29%; `O=C(OC1CN2CCC1CC2)C1c2ccccc2Oc2ccccc21` (stereo not given): inactive: 10.2%; `COc1ccc(Cl)cc1C(=O)NCC1(N2CCOCC2)CCCCC1`: inactive: 2.91%.
Turning to `CCOC(=O)N1CCC(Nc2ccc(OC)cc2)CC1`, the activation is inactive: 2.61%.
Consider `O=C(NCC1(N2CCCCC2)CCCCC1)c1ccc(Cl)nc1`, for which the activation was inactive: 3.27%.
Next, `Cc1cc(C)cc(N(C(=O)c2ccccc2)C2CCN(C(=O)OC(C)(C)C)CC2)c1`: inactive: 2.95%; `O=C(NCC1(N2CCOCC2)CCCCC1)c1cc2ccccc2o1`: inactive: 0.955%; `CSc1ccccc1C(=O)NCC1(N2CCCCC2)CCCCC1`: inactive: -0.198%.
Take `COc1ccc(C(=O)NCC2(N3CCCCC3)CCCCC2)cc1`: the activation was inactive: -0.179%.
On to `COc1ccc(C(=O)NCC2(N3CCCCC3)CCCCC2)c(OC)c1OC`, for which the activation was inactive: -1.58%.
As to `CC(C)(C)OC(=O)N1CCC(N(C(=O)c2ccccc2)c2ccc(F)cc2)CC1`, the activation was inactive: 0.372%.
Next, `O=C(NCC1(N2CCCCC2)CCCCC1)c1ccc(=O)[nH]c1`: inactive: 2.43%; `O=C(NCC1(N2CCCCC2)CCCCC1)c1cccs1`: inactive: -0.453%.
Next, `CCCCOc1ccccc1C(=O)NCC1(N2CCOCC2)CCCCC1`: inactive: 0.308%.
Consider `O=C(NCC1(N2CCOCC2)CCCCC1)c1ccccc1Br`, for which the activation was inactive: -0.804%.
Turning to `CCCOc1ccc(C(=O)NCC2(N(C)C)CCCCC2)cc1OC`, the activation is inactive: 7.12%.
`O=C(OC1CN2CCC1CC2)c1ccc([N+](=O)[O-])cc1` (stereo not given): the activation was inactive: 2.66%.
Consider `O=C(NCC1(N2CCCCC2)CCCCC1)c1cncc(Br)c1`, for which the activation is inactive: 1e-08%.
As for `COc1ccc2c(c1O)-c1c(O)c(OC)cc3c1[C@H](C2)[N+](C)(C)CC3.O=[N+]([O-])c1cc([N+](=O)[O-])c([O-])c([N+](=O)[O-])c1[O-]`, the activation was inactive: 3.48%.
For `COc1cc(OC)c(C(=O)NCC2(N(C)C)CCCCC2)cc1OC` the value was inactive: 0.379%; for `CC(C)c1ccc(NC2CCN(C(=O)OC(C)(C)C)CC2)cc1`, inactive: 8.34%; for `COc1ccc(CN(CCCl)CCCl)cc1Cl`, inactive: 2.02%.
Next, `CN(C)c1cccc(C(=O)NCC2(N3CCCCC3)CCCCC2)c1`: inactive: 0.929%; `O=[N+]([O-])c1cc([N+](=O)[O-])c(OC2CCCCC2O)c([N+](=O)[O-])c1` (stereo not given): inactive: 1.35%.
For `O=C(NCC1(N2CCOCC2)CCCCC1)c1cc(=O)[nH]c2ccccc12`, the activation is inactive: 0.715%.
For `COc1cc(C(=O)NCC2(N3CCCCC3)CCCCC2)ccc1OC(F)F` the value was inactive: 0.74%; for `COc1ccc(NC2CCN(C(=O)OC(C)(C)C)CC2)cc1`, inactive: 5.71%.
For the compound `CC(C)c1ccc(C(=O)NCC2(N3CCOCC3)CCCCC2)cc1`, the activation was inactive: 5.46%.
For `CN1CCN(CCOC(=O)C(O)(c2ccccc2)c2ccccc2)CC1` the value was inactive: 2.35%; for `O=[N+]([O-])c1cc([N+](=O)[O-])c(NCC2CCS(=O)(=O)C2)c([N+](=O)[O-])c1` (stereo not given), inactive: 2.74%; for `O=C(NCC1(N2CCCCC2)CCCCC1)c1cccc(C(F)(F)F)c1`, inactive: 3%.
For the compound `CCCOc1cccc(C(=O)NCC2(N3CCOCC3)CCCCC2)c1`, the activation is inactive: -1.66%.
Next, `CCN1CCC(Nc2ccc(Cl)cc2)CC1`: inactive: 5.11%; `N#CC1(Nc2ccccc2)CCN(CCc2ccccc2)CC1`: inactive: 3.9%.
Next, `CSc1ccc(C(=O)NCC2(N3CCOCC3)CCCCC2)cc1`: inactive: 1.35%; `O=C(NCC1(N2CCCCC2)CCCCC1)c1cccc([N+](=O)[O-])c1`: inactive: 5.17%.
In the case of `CCOc1ccc(C(=O)NCC2(N3CCOCC3)CCCCC2)cc1`, the activation is inactive: 0.991%.
`O=C(NCC1(N2CCCCC2)CCCCC1)c1ccc(OC(F)F)cc1`: the activation is inactive: 2.6%.
